These are literature values, as cited in patent publication US9457059B2, “Compositions and methods for treating renal failure” (La Jolla Pharmaceutical Company, priority 2013, dated 2016).

This data set relates to patients with hepatorenal syndrome. To be noted: albumin given intravenously, plasma volume expansion.

“albumin: albumin given intravenously for expansion of the plasma volume”: the renal function entry is recorded as “shown to improve renal function”.
